We go through two molecules from patent publication EP3398599A1, “COMPOSITIONS AND METHODS FOR PROPHYLAXIS AND TREATMENT OF ADDICTIONS” (priority 2009, dated 2010).

The test system of one series is human patients. Description: Observational study of alcohol abuse in human patients (pioglitazone 30 mg/day or naltrexone 50 mg/day + psychotherapy). The class given is in vivo.
A further series relates to heavy tobacco smokers. Description: Pilot study in heavy tobacco smokers (pioglitazone 15-30 mg/daily, varenicline 0.5 to 2.0 mg/day, bupropione). It counts as in vivo, human.
For series [1] the following is noted: Young, Buckle et al. 1998; Breidert, Callebert et al. 2002; cited from earlier work.

Take `O=C1CC[C@@]2(O)[C@H]3Cc4ccc(O)c5c4[C@@]2(CCN3CC2CC2)[C@H]1O5` [naltrexone]: the “Obsessive compulsive drinking scale (OCDS) (mean score values)” value turned out to be 49 with human patients (T=0 (beginning of the treatment)); 47 in the series with human patients (T=1.1 (month 1, week 1)); 45 with human patients (T=1.2 (month 1, week 2)).
As for `CCc1ccc(CCOc2ccc(CC3SC(=O)NC3=O)cc2)nc1` (stereo not shown) [pioglitazone], the “Percent inhibition of smoking” value in the series on heavy tobacco smokers (Patient 1, T=2 weeks of treatment) is on record as 27%; with heavy tobacco smokers (Patient 1, T=4 weeks of treatment), 49%; in the series with heavy tobacco smokers (Patient 1, T=6 weeks of treatment) it was 57%; in the series with heavy tobacco smokers (Patient 1, T=8 weeks of treatment), 72%; in the series with heavy tobacco smokers (Patient 2, T=2 weeks of treatment) it was 24%; in the series on heavy tobacco smokers (Patient 2, T=4 weeks of treatment), 39%. Moreover, the “Percent inhibition of smoking” value in the series with heavy tobacco smokers (Patient 2, T=6 weeks of treatment) amounted to 46%; in the series with heavy tobacco smokers (Patient 2, T=8 weeks of treatment), 68%; in the series on heavy tobacco smokers (Patient 2, T=10 weeks of treatment), 75%; in the series with heavy tobacco smokers (Patient 3, T=2 weeks of treatment), 25%; in the series with heavy tobacco smokers (Patient 3, T=4 weeks of treatment) it was 44%; with heavy tobacco smokers (Patient 3, T=6 weeks of treatment), 66%. The “Percent inhibition of smoking” value turned out to be 84% with heavy tobacco smokers (Patient 3, T=8 weeks of treatment); 23% in the series on heavy tobacco smokers (Patient 4, T=2 weeks of treatment); 41% with heavy tobacco smokers (Patient 4, T=4 weeks of treatment); 53% in the series with heavy tobacco smokers (Patient 4, T=6 weeks of treatment); 67% in the series with heavy tobacco smokers (Patient 4, T=8 weeks of treatment). The reduction of smoking in the series on heavy tobacco smokers (one (the fourth) pioglitazone patient) was 75%. In series [1], the “crossing of the blood brain barrier, compared with rosiglitazone” value was “crosses the blood brain barrier more easily”.
